Results reported in PubChem BioAssay (NCI).
Several values for one entry are separate records, joined by “and”; a condition that tells them apart may be missing. Equal entries are not always repeated. The entries are a selection whose mix differs from that of the whole data set.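 Single-dose data. Exposure time 48 hours. Values below 10 considered active.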 Activity calls are given as the source filed them.

Experiments:
Test in all cases: NCI-60 one-dose screen, 48 h (100 = growth as untreated, 0 = no growth, -100 = all killed)
HCT-15 colon = conditions: 10 µM unless noted
HT29 colon = conditions: 10 µM unless noted
SNB-75 CNS = conditions: 10 µM unless noted
SNB-19 CNS = conditions: 10 µM unless noted
U251 CNS = conditions: 10 µM unless noted
PC-3 prostate = conditions: 10 µM unless noted
SK-MEL-5 melanoma = conditions: 10 µM unless noted
UACC-62 melanoma = conditions: 10 µM unless noted
LOX IMVI melanoma = conditions: 10 µM
SK-MEL-28 melanoma = conditions: 10 µM unless noted

| SMILES | growth (HCT-15 colon) | growth (HT29 colon) | growth (SNB-75 CNS) | growth (SNB-19 CNS) | growth (U251 CNS) | growth (PC-3 prostate) | growth (SK-MEL-5 melanoma) | growth (UACC-62 melanoma) | growth (LOX IMVI melanoma) | growth (SK-MEL-28 melanoma) |
| --- | --- | --- | --- | --- | --- | --- | --- | --- | --- | --- |
| Cc1ccc(Sc2ccc([N+](=O)[O-])cc2[N+](=O)[O-])c([N+](=O)[O-])c1 | inactive: 12.3% | active: -19.5% | inactive: 41.5% | inactive: 31.4% | active: 2.59% | inactive: 17.8% | active: 1.13% | inactive: 34.3% | inactive: 14.7% | inactive: 54.3% |
| O=[As](O)(c1ccccc1)c1ccc(O)cc1 | inactive: 96.4% | inactive: 106% | inactive: 101% | inactive: 96.4% | inactive: 96.8% | inactive: 101% | inactive: 101% | inactive: 108% | inactive: 96.8% | inactive: 118% |
| Nc1ccccc1[As](=O)(O)c1ccccc1 | inactive: 107% | inactive: 109% | inactive: 98.1% | inactive: 101% | inactive: 100% | inactive: 86.5% | inactive: 108% | inactive: 103% | inactive: 104% | inactive: 105% |
| O=C1NC(c2ccccc2)(c2ccccc2)C(=O)N1P(=O)(Oc1ccccc1)Oc1ccccc1 | inactive: 106% | inactive: 111% | inactive: 72.7% | inactive: 98.4% | inactive: 101% | inactive: 89.7% | inactive: 100% | inactive: 95.9% | inactive: 96.8% | inactive: 106% |
| ClCCN1c2ccccc2Oc2ccccc21 | inactive: 96.6% | inactive: 105% | inactive: 97.7% | inactive: 95.9% | inactive: 104% | inactive: 98.8% | inactive: 99.6% | inactive: 101% | inactive: 105% | inactive: 112% |
| O=C(O)c1ccccc1[As](=O)(O)O | inactive: 111% | inactive: 102% | inactive: 85.5% | inactive: 100% | inactive: 101% | inactive: 94.1% | inactive: 129% | inactive: 110% | inactive: 90.1% | inactive: 98.4% |
| COP(OC)c1ccc(C)cc1 | inactive: 111% | inactive: 89.9% | inactive: 106% | inactive: 113% | inactive: 103% | inactive: 96.4% | inactive: 108% | inactive: 102% | inactive: 104% | inactive: 112% |
| CC(=O)NC(C)C(=O)N(CC(C)Cl)CC(C)Cl (stereo not given) | inactive: 94.9% | inactive: 100% | inactive: 86.3% | inactive: 101% | inactive: 92.4% | inactive: 89.4% | inactive: 94.3% | inactive: 103% | inactive: 98.2% | inactive: 103% |
| ClCC1CS1 (stereo not given) | inactive: 103% | inactive: 100% | inactive: 88.9% | inactive: 108% | inactive: 106% | inactive: 101% | inactive: 102% | inactive: 108% | inactive: 109% | inactive: 95.3% |
| CN(CCCl)/N=N/c1nc2nc[nH]c(=O)c2[nH]1 | inactive: 103% | inactive: 98.7% | inactive: 93.1% | inactive: 103% | inactive: 101% | inactive: 98.7% | inactive: 103% | inactive: 101% | inactive: 98.4% | inactive: 113% |
| NC(=O)c1[nH]cnc1/N=N\N(CCCl)CCCl | inactive: 145% | inactive: 108% | inactive: 78.9% | inactive: 106% | inactive: 119% | inactive: 106% | inactive: 114% | inactive: 101% | inactive: 111% | inactive: 125% |
| COc1cc([N+](=O)[O-])cc([N+](=O)[O-])c1 | inactive: 96.9% | inactive: 108% | inactive: 102% | inactive: 94.7% | inactive: 98.7% | inactive: 88% | inactive: 101% | inactive: 87.1% | inactive: 102% | inactive: 108% |
| NNc1ccc([N+](=O)[O-])cc1[N+](=O)[O-] | inactive: 94% | inactive: 106% | inactive: 85.3% | inactive: 107% | inactive: 106% | inactive: 107% | inactive: 111% | inactive: 87.3% | inactive: 87.2% | inactive: 116% |
| O=C(O)CCc1ccc(N(CCCl)CCCl)cc1 | inactive: 96% | inactive: 103% | inactive: 89% | inactive: 108% | inactive: 90.2% | inactive: 88% | inactive: 92.6% | inactive: 86% | inactive: 88.6% | inactive: 108% |
| O=P1(N(CCCl)CCCl)OCCCS1 (stereo not given) | inactive: 96% | inactive: 110% | inactive: 89.7% | inactive: 107% | inactive: 103% | inactive: 112% | inactive: 107% | inactive: 103% | inactive: 93.4% | inactive: 110% |
| Cn1c(COc2ccc([N+](=O)[O-])cc2[N+](=O)[O-])cnc1[N+](=O)[O-] | inactive: 95.3% | inactive: 103% | inactive: 76.9% | inactive: 108% | inactive: 100% | inactive: 93.9% | inactive: 101% | inactive: 106% | inactive: 93.6% | inactive: 112% |
| NCCNCCCl | inactive: 98% | inactive: 111% | inactive: 96.1% | inactive: 109% | inactive: 99.4% | inactive: 91.3% | inactive: 109% | inactive: 97.1% | inactive: 104% | inactive: 114% |
| CC1CN1P(=O)(Nc1ncccn1)N1CC1C (stereo not given) | inactive: 104% | inactive: 99.1% | inactive: 71% | inactive: 107% | inactive: 106% | inactive: 91.6% | inactive: 105% | inactive: 104% | inactive: 91.7% | inactive: 111% |
| COc1cccc(OC)c1N(CCCl)CCCl | inactive: 99.9% | inactive: 92.9% | inactive: 89.1% | inactive: 99.1% | inactive: 99.8% | inactive: 99.6% | inactive: 102% | inactive: 96.4% | inactive: 95.6% | inactive: 101% |
| Nc1ccc([As](=O)(O)c2ccc([N+](=O)[O-])cc2)cc1 | inactive: 106% | inactive: 111% | inactive: 92.8% | inactive: 95.3% | inactive: 111% | inactive: 89.7% | inactive: 97.3% | inactive: 98.7% | inactive: 90.3% | inactive: 117% |
| COc1cc([N+](=O)[O-])c([N+](=O)[O-])cc1OC | inactive: 102% and inactive: 110% | inactive: 111% | inactive: 99.7% and inactive: 107% | inactive: 103% and inactive: 105% | inactive: 98.3% and inactive: 99.9% | inactive: 103% | inactive: 99.2% | inactive: 82.5% and inactive: 104% | inactive: 99.7% and inactive: 97.6% | inactive: 101% and inactive: 113% |
| Cc1ccc(S(=O)(=O)n2cc([C@@]3(O)C[C@H](CC#N)OC3=O)c3ccccc32)cc1 | active: -14.3% | active: -10.1% | active: -4.02% | inactive: 33.8% | active: -3.77% | inactive: 14.2% | active: -43.5% | inactive: 24.5% | inactive: 16.7% | inactive: 49.2% |
| CCCN(CCCl)C1c2ccccc2-c2ccccc21 | inactive: 98% | inactive: 96.2% | inactive: 83.1% | inactive: 101% | inactive: 102% | inactive: 90.3% | inactive: 98.4% | inactive: 87.9% | inactive: 95.7% | inactive: 104% |
| CCN(CCCl)/N=N/c1nc2nc[nH]c(=O)c2[nH]1 | inactive: 109% | inactive: 105% | inactive: 91.8% | inactive: 105% | inactive: 98.8% | inactive: 103% | inactive: 97.6% | inactive: 103% | inactive: 99% | inactive: 110% |
| Nc1cccc([As](=O)(O)c2ccccc2)c1 | inactive: 98.2% | inactive: 109% | inactive: 106% | inactive: 105% | inactive: 96.1% | inactive: 110% | inactive: 105% | inactive: 98.8% | inactive: 101% | inactive: 122% |
| CCOC(=O)Nc1ccc([As](=O)(O)O)c(O)c1 | inactive: 108% | inactive: 103% | inactive: 98.5% | inactive: 91.9% | inactive: 103% | inactive: 115% | inactive: 92.4% | inactive: 102% | inactive: 101% | inactive: 108% |
